Values of other authors in patent US9464021B2, “Method of preparation of stereospecific quinone derivatives” (priority 2013, dated 2016).

Protein sequences, listed by entry. Tags and fused reporters are not part of them.
UniProt P35372, whole entry, species assumed: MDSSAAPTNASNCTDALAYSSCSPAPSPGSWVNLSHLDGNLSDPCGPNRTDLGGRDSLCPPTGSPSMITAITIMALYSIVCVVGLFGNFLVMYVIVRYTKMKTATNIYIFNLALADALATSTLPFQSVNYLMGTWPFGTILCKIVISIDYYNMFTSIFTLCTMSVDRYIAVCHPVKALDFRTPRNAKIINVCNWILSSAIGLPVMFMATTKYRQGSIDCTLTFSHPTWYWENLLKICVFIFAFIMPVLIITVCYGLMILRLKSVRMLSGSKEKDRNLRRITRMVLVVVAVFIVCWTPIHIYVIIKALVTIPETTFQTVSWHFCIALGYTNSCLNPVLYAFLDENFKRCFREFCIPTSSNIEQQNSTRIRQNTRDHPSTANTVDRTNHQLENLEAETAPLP

Target: μ opioid receptor (Homo sapiens, UniProt P35372)

Substance: R-methadone
- affinity for the μ opioid receptor relative to S-methadone: 20 fold
